The values below come from patent US6689807B1, “HMG CoA reductase inhibitors for promoting angiogenesis” (priority 2000, dated 2004).

This data set deals with Akt. The data set is described as follows: Akt polypeptide kinase assay (Akt immunoprecipitated from treated HUVEC; histone H2B or eNOS peptide substrate). The format is cell-based, human. To be noted: lysates of HUVEC treated with 1.0 μM simvastatin or 100 ng/ml VEGF. How it is done:
FIG. 2a depicts a representative autoradiogram of phosphorylation histone H2B (2 μg) by immunoprecipitated Akt. […] Under some conditions, cells were transfected with an adenovirus construct encoding dominant negative form of Akt1 (Ad-dnakt) 24 hours prior to drug treatment. Immunoprecipitated Akt was incubated with histone H2B (2 μg) for 30 minutes at 30° C. and reaction was terminated by adding SDS-sample buffer. Proteins were separated by SDS-PAGE and the extent of histone H2B phosphorylation was visualized by autoradiography.
Akt was immunoprecipitated and incubated with 25 μg eNOS peptide (wild: eNOS peptide corresponding to positions including its functional site serine 1179 residue. S1179A: the mutant peptide where the serine residue phosphorylated by Akt changed to alanine). […] Results are presented as mean ±S.E.M. (n=5-7, *p<0.05).
For assessment of Akt polypeptide kinase activity in vitro, substrate (2 μg histone H2B or 25 μg eNOS peptide) was incubated with Akt immunoprecipitated from cell lysate using goat polyclonal anti-Akt1 antibody (Santa Cruz) as described previously. […]

Turning to VEGF, the “Akt polypeptide kinase activity toward histone H2B” value is reported as “increased”.
